pIC50: −log10 of the molar value. Like-named read-outs stand apart in the source and are kept apart here.

Chains of the proteins cited; added tags and fusions are not shown.
UniProt Q06187, whole entry: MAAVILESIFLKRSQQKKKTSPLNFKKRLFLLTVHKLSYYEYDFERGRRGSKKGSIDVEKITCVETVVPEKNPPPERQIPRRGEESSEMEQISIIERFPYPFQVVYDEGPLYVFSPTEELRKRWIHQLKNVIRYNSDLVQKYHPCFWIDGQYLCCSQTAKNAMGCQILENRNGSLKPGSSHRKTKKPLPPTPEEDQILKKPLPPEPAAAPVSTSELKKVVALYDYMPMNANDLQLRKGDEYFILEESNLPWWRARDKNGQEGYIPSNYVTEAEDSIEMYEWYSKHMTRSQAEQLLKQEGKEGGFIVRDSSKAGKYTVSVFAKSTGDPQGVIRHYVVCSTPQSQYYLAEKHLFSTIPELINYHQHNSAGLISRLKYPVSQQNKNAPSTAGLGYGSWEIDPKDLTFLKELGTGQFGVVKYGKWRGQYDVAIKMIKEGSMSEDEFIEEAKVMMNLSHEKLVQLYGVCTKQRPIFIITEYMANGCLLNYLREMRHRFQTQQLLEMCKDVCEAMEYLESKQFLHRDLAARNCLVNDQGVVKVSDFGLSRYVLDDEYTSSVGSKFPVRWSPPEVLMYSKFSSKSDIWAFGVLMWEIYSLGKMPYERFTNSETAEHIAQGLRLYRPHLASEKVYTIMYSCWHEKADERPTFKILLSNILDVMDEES

The values below come from patent publication US12559454B2, “Benzenesulfonamide derivatives and uses thereof” (2692372 Ontario, Inc., priority 2019, dated 2026).

For one assay, the target named is BTK (Homo sapiens, UniProt Q06187). As to the kind of experiment: In vitro BTK inhibition (no preincubation). Format: biochemical.
For assay [1], the target named is BTK protein levels in RAMOS cells (Homo sapiens, UniProt Q06187). Put plainly: Total BTK degradation assay (HTRF) in RAMOS cells. Format: cell-based. (TR-FRET usually uses a lanthanide donor and a delayed reading to cut background.)

As to `COCCOc1ccc(Nc2ncc(F)c(Nc3cccc(NS(=O)(=O)c4c(F)c(F)c(F)c(F)c4F)c3)n2)cc1`, the pIC50 on BTK (read-out: BTK (IC50), Table 18) is 6.00 to 7.00. Also, in assay [1], the “Percent residual BTK after 24 hours with test compound (5 μM)” value stood at 63%. For `Nc1ncnc2c1c(-c1ccc(Oc3ccccc3)cc1)nn2[C@@H]1CCN(S(=O)(=O)c2c(F)c(F)c(F)c(F)c2F)C1`, at BTK (read-out: BTK (IC50), Table 17), the negative logarithm of the IC50 (pIC50) was 8.00 to 10.00.

A word on the pIC50: it is −log10 of the IC50, conventionally taken in molar units.
